Results reported in US9765075B2, “Substituted bridged urea analogs as sirtuin modulators” (GLAXOSMITHKLINE LLC, priority 2013, dated 2017).

Molecular target: T1, hSIRT1(229-516) (Homo sapiens, UniProt Q96EB6)
T1 construct: hSIRT1(229-516)
T1 sequence (Q96EB6 229-516): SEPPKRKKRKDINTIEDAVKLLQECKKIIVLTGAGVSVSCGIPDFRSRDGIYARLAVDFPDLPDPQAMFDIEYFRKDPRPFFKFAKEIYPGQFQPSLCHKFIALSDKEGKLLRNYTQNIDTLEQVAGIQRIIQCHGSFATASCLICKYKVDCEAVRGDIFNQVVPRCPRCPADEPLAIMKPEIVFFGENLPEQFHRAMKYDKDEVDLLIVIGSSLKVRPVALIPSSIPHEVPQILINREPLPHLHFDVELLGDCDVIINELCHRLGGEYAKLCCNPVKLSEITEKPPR
Assay: Steady-state kinetics, PNC1/GDH coupled assay, in presence of CBS peptide
Type: biochemical
Procedure: Final concentrations of the PNC1/GDH coupling system components used were 20 units/mL bovine GDH (Sigma-Aldrich), 1 uM yeast PNC1, 3.4 mM α-ketoglutarate, and 220 μM NADH or NADPH. An extinction coefficient of 6.22 mM^−1 cm^−1 and a pathlength of 0.81 cm was used to convert the absorbance at 340 nm to product concentration for the 150 uL reactions used. […] Quenched reactions were diluted 5-fold with 1:1 acetonitrile:methanol and spun at 5,000×g for 10 minutes to precipitate protein before being analyzed with an Agilent RapidFire 200 High-Throughput Mass Spectrometry System (Agilent, Wakefield, Mass.) coupled to an ABSciex API 4000 mass spectrometer fitted with an electrospray ionization source. The p53-based Ac-p53(W5) (Ac-RHKK^AcW-NH2) and FOXO-3a 21-mer (Ac-[…]^Ac[…]-NH2) peptides were obtained from Biopeptide, Inc. Deacetylation assays used the Ac-p53(W5) substrate unless otherwise noted.
Substrate KM determinations were performed by varying one substrate concentration at a fixed, saturating concentration of the second substrate. SIRT1 activation and inhibition assays were run in reaction buffer with 0.05% BSA at 25° C. and analyzed using the OAcADPr assay. Enzyme and compound were pre-incubated for 20 minutes before addition of substrates. […]

CC[C@H](C)[C@H](NC(=O)[C@H](Cc1ccc(O)cc1)NC(=O)[C@H](CCCNC(=N)N)NC(=O)[C@H](CC(N)=O)NC(=O)[C@@H]1CCCN1C(=O)[C@@H]1CCCN1C(=O)[C@H](CC(C)C)NC(=O)[C@H](Cc1ccccc1)NC(=O)[C@H](CC(C)C)NC(=O)[C@H](Cc1ccc(O)cc1)NC(=O)[C@@H](N)CCC(N)=O)C(=O)N[C@@H](Cc1ccccc1)C(=O)N[C@@H](Cc1c[nH]cn1)C(=O)NCC(=O)N[C@@H](C)C(=O)N[C@@H](CCC(=O)O)C(=O)N[C@H](C(=O)N[C@@H](Cc1ccc(O)cc1)C(=O)N[C@@H](CO)C(=O)N[C@@H](CC(=O)O)C(=O)N[C@@H](CO)C(=O)N[C@@H](CCC(=O)O)C(=O)N[C@@H](CC(=O)O)C(=O)N[C@@H](CC(=O)O)C(=O)N[C@H](C(=O)O)C(C)C)C(C)C [CBS peptide]
lowering of the KM values for both peptide substrate and NAD+ of hSIRT1cc: 4-5 fold
kcat (hSIRT1(229-516) in presence of the peptide, PNC1/GDH assay): 0.54 ± 0.01 s⁻¹
